Results taken from patent publication US12391697B2, “Condensed bi-heterocycles as inhibiting agents for Bruton's tyrosine kinase” (BIOGEN MA INC., priority 2019, dated 2025).

The chains behind the UniProt entries cited, without tags or fusion partners.
UniProt Q06187, whole entry: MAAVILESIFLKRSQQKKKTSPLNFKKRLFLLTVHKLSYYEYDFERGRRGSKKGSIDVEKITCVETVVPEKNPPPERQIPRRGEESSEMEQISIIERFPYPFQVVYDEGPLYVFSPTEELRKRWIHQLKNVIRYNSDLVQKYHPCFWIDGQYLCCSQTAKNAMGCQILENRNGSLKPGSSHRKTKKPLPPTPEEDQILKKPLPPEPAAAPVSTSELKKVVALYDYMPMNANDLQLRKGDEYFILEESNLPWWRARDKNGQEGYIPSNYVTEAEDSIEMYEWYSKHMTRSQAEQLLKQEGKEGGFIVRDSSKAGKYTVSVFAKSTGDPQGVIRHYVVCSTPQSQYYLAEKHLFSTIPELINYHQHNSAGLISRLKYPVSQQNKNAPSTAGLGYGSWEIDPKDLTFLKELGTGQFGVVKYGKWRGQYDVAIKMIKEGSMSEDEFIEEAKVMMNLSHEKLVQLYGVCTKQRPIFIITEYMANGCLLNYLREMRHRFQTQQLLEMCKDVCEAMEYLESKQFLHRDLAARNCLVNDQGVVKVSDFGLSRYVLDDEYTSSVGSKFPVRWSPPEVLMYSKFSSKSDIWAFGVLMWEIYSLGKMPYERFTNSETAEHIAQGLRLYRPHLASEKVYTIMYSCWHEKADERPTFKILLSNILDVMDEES

Target: BTK (Homo sapiens (Human), UniProt Q06187)
Test: In Vitro BTK Kinase Assay: Btk-PolyGAT-LS Assay
Format: biochemical
Conditions: active BTK enzyme 0.25 nM, ATP 10 μM, polyGAT 100 nM, 30 minutes

SMILES	IC50 (tested form: TFA)	IC50
Cc1cc(-c2ncnn3cc(-c4cn(C)cn4)cc23)ccc1CNC(=O)c1noc(C(C)(C)C)n1	< 1 nM	–
Cc1c(CNC(=O)c2noc(C(C)(C)C)n2)ccc(-c2ccnc3cc(-c4cnn(C)c4)nn23)c1F	–	1 to 10 nM
COC1CN(c2cc3c(-c4ccc(CNC(=O)c5nc(C(C)(C)C)no5)c(C)c4)ncnn3c2)CC1OC (stereo not drawn)	1 to 10 nM	–
